The text below walks through data of patent publication US20130203718A1, “PROGESTERONE RECEPTOR ANTAGONISTS AND USES THEREOF” (priority 2010, published 2013).

Holding throughout (assay type): cell-based
One test concerns the target T1, hPRB and NCoR (Homo sapiens, UniProt P06401).
T1 construct: expressed in transfected cells; host or cells: HEK 293T
T1 sequence (P06401 1-933): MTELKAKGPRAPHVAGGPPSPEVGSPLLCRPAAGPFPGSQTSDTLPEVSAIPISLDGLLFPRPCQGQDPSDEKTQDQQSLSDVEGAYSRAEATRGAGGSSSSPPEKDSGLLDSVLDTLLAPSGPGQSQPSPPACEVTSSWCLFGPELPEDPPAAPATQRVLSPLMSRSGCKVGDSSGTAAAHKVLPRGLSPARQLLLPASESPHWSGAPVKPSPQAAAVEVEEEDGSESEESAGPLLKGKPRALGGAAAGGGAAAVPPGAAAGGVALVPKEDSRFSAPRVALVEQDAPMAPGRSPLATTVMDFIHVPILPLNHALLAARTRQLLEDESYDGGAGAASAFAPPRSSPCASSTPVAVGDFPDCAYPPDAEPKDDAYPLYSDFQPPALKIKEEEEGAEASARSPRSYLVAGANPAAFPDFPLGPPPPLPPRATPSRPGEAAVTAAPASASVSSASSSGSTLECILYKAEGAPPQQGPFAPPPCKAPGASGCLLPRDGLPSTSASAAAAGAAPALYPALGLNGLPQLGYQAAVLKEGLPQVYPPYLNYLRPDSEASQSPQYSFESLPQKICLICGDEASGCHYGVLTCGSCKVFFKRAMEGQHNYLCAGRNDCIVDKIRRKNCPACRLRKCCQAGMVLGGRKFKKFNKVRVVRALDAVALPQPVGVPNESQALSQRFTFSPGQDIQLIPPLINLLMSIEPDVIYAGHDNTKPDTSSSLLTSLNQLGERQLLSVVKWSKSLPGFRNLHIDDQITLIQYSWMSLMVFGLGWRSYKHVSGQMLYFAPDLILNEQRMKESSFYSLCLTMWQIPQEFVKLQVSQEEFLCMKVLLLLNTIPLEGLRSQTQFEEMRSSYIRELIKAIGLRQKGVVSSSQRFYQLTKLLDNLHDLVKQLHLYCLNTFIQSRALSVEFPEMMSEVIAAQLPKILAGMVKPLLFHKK
Kind of test: Mammalian two hybrid assay, recruitment of co-repressor NCoR by hPRB. The following applies: HEK293T, FIGS. 12 and 14. The procedure: (§1) Mammalian Two Hybrid Assays.
(§2) To investigate whether hPR was able to recruit transcriptional corepressors upon APRn binding, two hybrid assays have been performed in HEK 293T cells. Cell transfection were carried out according to the protocol used for the PR transactivation assays, with 1 μg of pGAL4-SMRT or pGAL4-NcoR, 2.5 μg of the PR expression vector pV16-PR and 5 μg of the reporter pG5-luc. The plasmid pGAL4-SMRT and pGAL4-NcoR, provided by P. Balaguer, encode the fusion protein between the GAL4 DNA-binding domain (GAL4DBD) and the receptor interacting domain (RID) of the corepressor […], respectively. The expression vector pV16PR encodes the VP16 activation domain of herpes simplex virus fused to the entire hPR and pG5-luc, provided by P. Fuller, encodes the luciferase gene driven by a GAL4-responsive promoter. […] Cells were lysed and the luciferase and activities were quantified by using a Mithras reader microplates (Berthold).
(§3) Both agonist- and antagonist-bound PR regulate gene transcription with the assistance of transcriptional co-repressors (NCoR, SMRT) or co-activators (namely, TIF-2). To characterize the mechanism by which APRn inactivate hPRB, the capacity of hPRB to recruit transcriptional co-regulators upon APRn binding has been evaluated. […]

The target in the next test is T2, hPRB and SMRT (Homo sapiens, UniProt P06401).
T2 construct: expressed in transfected cells; host or cells: HEK 293T
T2 sequence (P06401 1-933): T1 sequence (P06401 1-933)
Kind of test: Mammalian two hybrid assay, recruitment of co-repressor SMRT by hPRB. The note with it: HEK293T, FIGS. 13 and 14. As to the method:
as §1, §2, §3

The target in another test is T3, hPRB and TIF-2 (Homo sapiens, UniProt P06401).
T3 construct: expressed in transfected cells; host or cells: HEK 293T
T3 sequence (P06401 1-933): T1 sequence (P06401 1-933)
Kind of test: Mammalian two hybrid assay, recruitment of co-activator TIF-2 (TIF-2-Nter, TIF-2-NterRID) by hPRB. The note with it: TIF-2-Nter and TIF-2-NterRID, HEK293T, FIGS. 15-17. The procedure: as §1, §2, §3

“Also recorded” adds a separate entry of the source.

Regarding `CC#C[C@]1(O)CC[C@H]2[C@@H]3CCC4=CC(=O)CCC4=C3[C@@H](c3ccc(N(C)C)cc3)C[C@@]21C` [RU486, mifepristone, reference compound], the “recruitment of co-repressor NCoR by hPRB upon ligand binding” value on hPRB and NCoR is listed as “promoted a dose-dependent binding”. Moreover, the “recruitment of co-repressor SMRT by hPRB upon ligand binding” value on hPRB and SMRT is recorded as “promoted a dose-dependent binding”. The “recruitment of co-activator TIF-2 sequences by hPRB upon ligand binding” value at hPRB and TIF-2 was “promoted a dose-dependent binding of both TIF-2 sequences; also recorded: lower upon RU486 compared to progesterone”.
As for `CC(=O)[C@H]1CC[C@H]2[C@@H]3CCC4=CC(=O)CC[C@]4(C)[C@H]3CC[C@]12C` [progesterone], the “recruitment of co-repressor SMRT by hPRB upon ligand binding” value on hPRB and SMRT is “not SMRT”. Also, the “recruitment of co-activator TIF-2 sequences by hPRB upon ligand binding” value at hPRB and TIF-2 is “promoted a dose-dependent binding of both TIF-2 sequences”.
